Drawing on publication PMC9964314, this text covers Kd for one substance.

For the experiment, the target named is FITC tagged AAV Po1 capsid bipartite NLS peptide (residues 119-158) (porcine adeno-associated virus, strain Po1). Kind of experiment: fluorescence polarisation. In general terms: Polarisation of emitted light reports the rotation of a fluorescent probe.

pKd: −log10 of the molar value.

Regarding “Mouse importin α2 lacking the IBB domain (mImpα2DIBB) (from UniProt P52293 70-529) (domain or fragment)”, the pKd was 9.00.

In general, pKd refers to the negative decadic logarithm of the Kd, by convention in mol/L.
